Here are results for one compound from article PMC11862990, “Utility of 6-aza-2-thiothymine in the synthesis of novel [1,2,4]triazolo[4,3-b][1,2,4]triazin-7-one derivatives: synthesis, structure elucidation, molecular docking and in vitro anti-lung cancer activity” (RSC Advances, 2025).

The assay concerns lung cancer cell lines (A549). Briefly: DNA fragmentation assay (diphenylamine reaction). Type of assay: cell-based, human. How it is done: The DNA fragmentation assay in lung cancer cell lines was performed in accordance with the protocol established by Yawata (1998)[34] with some modifications. Briefly, the lung cancer cell lines (A549) exposed to different compounds such as PT1, PT7 and Doxorubicin were homogenized in 1 ml of the medium and centrifuged (10 min at 800 rpm). The low-molecular-weight genomic DNA was extracted as described in Yawata (1998).[34] Approximately 1 × 10^6 cells of each treatment were plated. All the cells (including floating cells) were harvested and washed with Dulbecco's phosphate buffered saline. The cancer cells were lysed with the lysis buffer containing 10 mM Tris (pH 7.4), 150 mM NaCl, 5 mM ethylenediaminetetraacetic acid (EDTA), and 0.5% Triton X-100 for 30 min on ice. […] Fragmented DNA in the supernatant was extracted with an equal volume of a neutral phenol : chloroform : isoamyl alcohol mixture (25 : 24 : 1) and analyzed electrophoretically on 2% agarose gels containing 0.1 μg ml^−1 ethidium bromide.
The lung cancer cell lines (A549) were used to determine the quantitative profile of the DNA fragmentation. […] The proportion of the fragmented DNA was calculated from the absorbance values at 600 nm wavelength using the formula:% fragmented DNA = [OD(S)/[OD(S) + OD(P)]] × 100(OD: optical density, S: supernatants, P: pellets).

Marks after values point to notes of the source that are not given here.

For the compound `COc1cccc2c1C(=O)c1c(O)c3c(c(O)c1C2=O)C[C@@](O)(C(=O)CO)C[C@@H]3O[C@H]1C[C@H](N)[C@H](O)[C@H](C)O1` [Dox, Doxorubicin, reference compound], the “DNA fragmentation% (M ± SEM)” value is, setting by setting: (negative control 12.54 ± 0.45) 28.38 ± 1.06^b %; (negative control 12.54 ± 0.45, listed as doxorubicin) 28.38 ± 1.06%.
